# According to patent US8273701B2, “Method for diagnosing non-small cell lung carcinoma” (Trustees of Dartmouth College, priority 2005, dated 2012):
# Key:
# A549 = tested on: A549
# Description: (§1) Results from DTP analysis of the NCI-60 screen were independently validated with each cell line to determine which NSCLC cell lines required Hedgehog activity to proliferate.
# HOP62 = conditions: 5, 10, 15, 20, 25 AM, proliferation measured 72 hours later, normalized to tomatidine
# Description: as §1
# NCI-H322M = conditions: 5, 10, 15, 20, 25 AM, proliferation measured 72 hours later, normalized to tomatidine
# Description: as §1
structure (smiles),measurement,setting,value
"CC1=C2C[C@H]3[C@@H](CC=C4C[C@@H](O)CC[C@@]43C)[C@@H]2CC[C@]12O[C@@H]1C[C@H](C)CN[C@H]1[C@H]2C [Cyclopamine, cyclopamine]",Sensitivity of cell proliferation to cyclopamine,A549; A549 cells (High-Gli),relatively insensitive
same,Sensitivity of cell proliferation to cyclopamine after Gli1 siRNA,"A549; A549 transfected with Gli1 siRNA (SEQ ID NO:9) for 30 hours, then cyclopamine, proliferation measured 48 hours later",cyclopamine sensitivity
same,Sensitivity of cell proliferation to cyclopamine after random siRNA,"A549; A549 treated with a random siRNA (control), followed by cyclopamine",relatively cyclopamine-insensitive
same,Sensitivity of cell proliferation to cyclopamine,HOP62,sensitive
same,Sensitivity of cell proliferation to cyclopamine,NCI-H322M,sensitive
